INS-1E GSIS act: primary screen for activators of insulin secretion dependent on glucose, INS-1E cells, GLuc reporter luminescence | INS-1E GLuc reporter insulin secretion, 2-3 h | activation, % at 16.6 µM | 370,000 compounds, 0.61% hits;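 active means lowest replicate activation of at least 40%, so every replicate reaches that level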
Rev-erbA mod: Rev-erb alpha (human) modulation; AID 1259318; P20393; Rev-erbα–FITC-DNA binding, fluorescence polarization, 90 min; activity, % at 10 µM; 370,000 compounds, 0.79% hits;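 active means activity above about 14%, limit read from the data; passing the limit was not always enough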
ERp5 inh: blocks human ERp5 reductase activity on insulin; inhibition, % at 9.99 µM; ERp5 insulin aggregation, absorbance 650 nm, 90 min; 350,000 compounds, 0.05% hits;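 active means mean replicate inhibition above about 25%, with every replicate also reaching it, limit read from the data, passing the limit was not always enough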
SMARCA2 act: activators of SMARCA2 function | MG213 cells, MMTV-luciferase reporter, dexamethasone, overnight | activation, % at 9.1 µM | 370,000 compounds, 1% hits | AID 652017; in the data active means activation above about 7.8%
UUG fidelity: alters start codon recognition fidelity in yeast; S. cerevisiae UUG-firefly luciferase reporter, luminescence/redox ratio; activity score, % at 18.7 µM; actives 0.13% (n = 350,000); AID 602363;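 active = replicate mean at a twofold rise or more, about +100% in these data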;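 also: firefly luciferase made from a UUG start codon reports start codon fidelity; reporter light over untreated wells divided by growth signal over untreated wells; some hits fall short of that in this replicate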
PDI turbidity: inhibitors of human protein disulfide isomerase; PDI insulin aggregation turbidity, A650, 90 min; inhibition, % at 10 µM; P07237; 350,000 compounds, 0.052% hits;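 active means mean inhibition across replicates of 30% or more, whatever share of single replicates reach that level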
Rev-erbA confirm: Rev-erb alpha (human) modulation, hit confirmation; shares compounds with Rev-erbA mod; Rev-erb alpha FITC-DNA binding, fluorescence polarization, 90 min; activation, % at 25 µM; 3,000 compounds, 61% hits;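 active means activation at or above a set limit, or at least 3 SD above the negative control mean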
RORg counter: affects RORgamma DNA binding in a Rev-erb alpha counter-screen; 910 compounds, 8% hits; shares compounds with Rev-erbA mod; purified RORgamma protein-FITC-DNA binding, fluorescence polarization; IC50, µM;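 active means Compounds whose fitted half-maximal concentration for disrupting protein-DNA binding is below 10 micromolar; the record names Rev-erb in its text, so the target is in doubt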
Large screens that a line does not name were inactive (follow-up assays come after a bar, where they were run). Hits are enriched below; roughly 2.1% of the tested compounds scored in any of these assays.

CC12CN3CC(C)(CN(C1)C3c1ccc3ccccc3c1O)C2=O (stereo not drawn)	none
CCn1cc(C2N3CC4(C)CN2CC(C)(C3)C4=O)c2ccccc21 (stereo not drawn)	Rev-erbA mod 50 (no result: PDI turbidity) | Rev-erbA confirm 56 | RORg counter inactive
CCOC(=O)C1=C(Nc2ccc(Br)cc2)CC(C)(O)C(C(=O)OCC)C1c1ccccc1 (stereo not drawn)	Rev-erbA mod 28 (no result: INS-1E GSIS act, ERp5 inh) | Rev-erbA confirm inactive
COc1cc(NC(=O)c2cccs2)c(C(=O)OCC(=O)c2cc(C)n(-c3ccccc3)c2C)cc1OC	none (no result: ERp5 inh)
COc1ccc(-n2c(C)cc(C(=O)COC(=O)c3cc(NC(=O)c4cccs4)c(OC)c(OC)c3)c2C)cc1	Rev-erbA mod 32 | Rev-erbA confirm inactive
CC(=O)Nc1ccc(-c2cc(-c3ccc(NC(C)=O)cc3)nc(-c3ccccc3)n2)cc1	Rev-erbA mod 41 (no result: INS-1E GSIS act, ERp5 inh) | Rev-erbA confirm 24
CC(=O)Nc1ccc(-c2cc(-c3ccc(NC(C)=O)cc3)nc(-c3ccc(NC(C)=O)cc3)n2)cc1	Rev-erbA mod 52 | Rev-erbA confirm 35
CCc1ccc(Nc2n[n+](-c3ccccc3)c(-c3ccc(N(CC)CC)cc3)s2)cc1	none
CCc1ccc(Nc2n[n+](-c3ccccc3)c(-c3ccc(OCc4ccccc4)cc3)s2)cc1	Rev-erbA mod 16 | Rev-erbA confirm inactive
COc1cc(/C=C(\C#N)c2nc3ccccc3o2)ccc1O	Rev-erbA mod 43 | Rev-erbA confirm 60 | RORg counter inactive
O=C(Nc1ccc2c(c1)C(=O)NC2=O)c1cc(Cl)ccc1Cl	Rev-erbA mod 144 (no result: INS-1E GSIS act) | Rev-erbA confirm 121 | RORg counter inactive
CCOC(=O)c1nn(-c2ccc(Cl)cc2)c2nc(-c3ccc(C)cc3)c(C#N)c(=O)n12	Rev-erbA mod 36 (no result: ERp5 inh) | Rev-erbA confirm 37 | RORg counter inactive
Cc1ccc(-c2c(C#N)c(N)n(-c3ccccc3)c(=O)c2C#N)cc1	none (no result: ERp5 inh, UUG fidelity)
Cc1ccc(-c2c(C#N)c(N)n(-c3ccc(Cl)cc3)c(=O)c2C#N)cc1	Rev-erbA mod 38 | Rev-erbA confirm 29 | RORg counter inactive
CCOC(=O)c1nn(-c2ccc(Cl)cc2)c2nc(CC)c(C#N)c(=O)n12	Rev-erbA mod 33 (no result: INS-1E GSIS act, ERp5 inh) | Rev-erbA confirm inactive
C[C@H](CO)N1C[C@H](C)[C@H](CN(C)Cc2ccc(C(=O)Nc3ccccc3N)cc2)OCCCC[C@H](C)Oc2ccc(NC(=O)C3CCCCC3)cc2C1=O	none (no result: Rev-erbA mod, SMARCA2 act, UUG fidelity, PDI turbidity)
CCC(C)(C)NC(=O)CN(Cc1ccc2c(c1)OCO2)C(=O)CCC(=O)Nc1nccs1	none (no result: UUG fidelity)
CCC(C)(C)NC(=O)CN(Cc1ccc2c(c1)OCO2)C(=O)CCC(=O)Nc1ccccn1	Rev-erbA mod 27 (no result: INS-1E GSIS act, ERp5 inh) | Rev-erbA confirm inactive
Cc1cc2c(s1)c1cnn(Cc3c(Cl)ccc(C)c3F)c(=O)c1n2C	Rev-erbA mod 233 (no result: INS-1E GSIS act, ERp5 inh, SMARCA2 act, UUG fidelity, PDI turbidity) | Rev-erbA confirm 81 | RORg counter inactive
Cc1cc2c(s1)c1cnn(Cc3cc(F)ccc3F)c(=O)c1n2C	none (no result: INS-1E GSIS act, ERp5 inh, SMARCA2 act, UUG fidelity, PDI turbidity)
Cc1cc2c(s1)c1cnn(Cc3ccccc3F)c(=O)c1n2C	Rev-erbA mod 33 (no result: INS-1E GSIS act) | Rev-erbA confirm 18
C[C@H](CO)N1C[C@H](C)[C@H](CN(C)CC2CCCCC2)OCCCC[C@H](C)Oc2ccc(NC(=O)C3CCCCC3)cc2C1=O	none (no result: Rev-erbA mod, SMARCA2 act, PDI turbidity)
COc1cc2oc(=O)cc(-c3ccc(-c4ccc(CO)cc4)cc3)c2c(OC)c1OC	Rev-erbA mod 30 | Rev-erbA confirm 28 | RORg counter inactive
COc1cc2oc(=O)cc(-c3ccc(-c4ccc(C)cc4)cc3)c2c(OC)c1OC	none
COC(=O)c1cc(Cl)c(NC(=O)c2ccc(C(C)(C)C)cc2)cc1OC	none (no result: ERp5 inh)
CCOC(=O)c1sc(NC(=O)c2ccccc2OC)nc1C	Rev-erbA mod 40 | Rev-erbA confirm 23
COC(=O)c1sc(NC(=S)NC(=O)c2cccc(C)c2)nc1C	none (no result: INS-1E GSIS act)
COC(=O)c1sc(NC(=S)NC(=O)c2ccccc2F)nc1C	Rev-erbA mod 43 (no result: UUG fidelity) | Rev-erbA confirm inactive
COC(=O)c1cc(Cl)c(NC(=O)c2cc3ccccc3o2)cc1OC	Rev-erbA mod 28 (no result: INS-1E GSIS act, ERp5 inh) | Rev-erbA confirm inactive
CCOC(=O)c1sc(NC(=O)c2cc3ccccc3o2)nc1C	Rev-erbA mod 30 (no result: UUG fidelity) | Rev-erbA confirm inactive
Cc1nc(NC(=O)c2cc3ccccc3o2)sc1C	none
CC(C)c1ccc(S(=O)(=O)c2cc3cc(Br)ccc3oc2=O)cc1	Rev-erbA mod 19 (no result: ERp5 inh, UUG fidelity) | Rev-erbA confirm inactive
O=C(Nc1nc(-c2ccc(F)cc2)cs1)c1ccc(N2C(=O)CCC2=O)cc1	none
CCOC(=O)c1c(NC(=O)c2cccc(N3C(=O)CCC3=O)c2)sc(C)c1C	none (no result: INS-1E GSIS act, ERp5 inh)
COc1ccc(-c2csc(NC(=O)c3ccc(N4C(=O)CCC4=O)cc3)n2)cc1	Rev-erbA mod 27 | Rev-erbA confirm inactive
COc1ccc(-c2csc(NC(=O)c3cccc(N4C(=O)CCC4=O)c3)n2)cc1OC	none
CCOC(=O)c1c(-c2ccc(-c3ccccc3)cc2)csc1NC(=O)c1cccc(N2C(=O)CCC2=O)c1	Rev-erbA mod 43 (no result: ERp5 inh, UUG fidelity) | Rev-erbA confirm 29
CCOc1ccc(-c2csc(NC(=O)c3cccc(N4C(=O)CCC4=O)c3)n2)cc1	Rev-erbA mod 24 | Rev-erbA confirm 14
O=C(Nc1ccccc1F)N[C@@H]1CC[C@H](CCNC(=O)C2CCCCC2)O[C@@H]1CO	none (no result: Rev-erbA mod, SMARCA2 act, UUG fidelity, PDI turbidity)
Cc1nc2ccc(N)cc2s1	none
C[n+]1c2cc(N)ccc2cc2ccc(N)cc21	Rev-erbA mod 51 | Rev-erbA confirm 29 | RORg counter inactive
O=S(=O)(c1ccccc1)N1CCN(Cc2ccccc2)c2ccccc21	Rev-erbA mod 25 | Rev-erbA confirm 17
O=S(=O)(c1ccccc1)N1CCN(Cc2ccccc2)CC1	none
CCOC(=O)c1cnc2c(cnn2C)c1NCc1ccc(OC)cc1	Rev-erbA mod 28 | Rev-erbA confirm 22
O=C(Nc1ccccc1)c1cccc(-c2nnc(-c3ccccc3)o2)c1	Rev-erbA mod 30 (no result: INS-1E GSIS act, ERp5 inh) | Rev-erbA confirm inactive
O=C(Nc1cccc(-c2nnc(-c3ccccc3)o2)c1)c1ccco1	none (no result: INS-1E GSIS act, ERp5 inh)
O=C(NCC1CCCO1)c1nn2c(C(F)(F)F)cc(-c3cccs3)nc2c1Cl (stereo not drawn)	none
COc1ccc(-c2cc(C(=O)NCC3CCCO3)on2)cc1OC (stereo not drawn)	none
O=C(NCC1CCCO1)c1nn2c(C(F)(F)F)cc(-c3cccs3)nc2c1Br (stereo not drawn)	Rev-erbA mod 26 | Rev-erbA confirm 18
COc1ccc(-c2cc(C(F)(F)F)n3ncc(C(=O)NCC4CCCO4)c3n2)cc1OC (stereo not drawn)	Rev-erbA mod 28 (no result: INS-1E GSIS act, ERp5 inh) | Rev-erbA confirm 31

Screening data deposited in PubChem by several laboratories.
